Assay: Lipid monolayer (Langmuir balance) insertion
Design: species or system Clostridium perfringens

CTAB
insertion into lipid monolayer (initial surface pressure of 30 mN/m, 5 times MIC): can therefore be inserted
critical insertion pressure Pc (injected at 5 times their MIC): 46.8 mN/m
